From ChEMBL document CHEMBL4376859, “Prodrugs for nitroreductase-based cancer therapy-3: Antitumor activity of the novel dinitroaniline prodrugs/Ssap-NtrB enzyme suicide gene system: Synthesis, in vitro and in silico evaluation in prostate cancer” (Eur J Med Chem, 2020)

Amino acid sequences for entries named in this document (tags omitted). Residues count along the entry.
UniProt Q4A0P1, 1-208: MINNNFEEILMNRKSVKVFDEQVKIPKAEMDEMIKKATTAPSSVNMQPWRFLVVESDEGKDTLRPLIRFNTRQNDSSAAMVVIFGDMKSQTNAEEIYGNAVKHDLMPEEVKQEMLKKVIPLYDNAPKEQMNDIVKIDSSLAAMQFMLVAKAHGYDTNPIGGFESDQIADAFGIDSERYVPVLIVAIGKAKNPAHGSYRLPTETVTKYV

Columns and labels:
[1] = system: PC-3; assay: Cytotoxicity against human PC3 cells […] Staphylococcus saprophyticus nitroreductase NtrB assessed as reduction in cell viability in presence of NADH as cofactor after 48 hrs by SRB assay
[2] = system: HUVEC; assay: Cytotoxicity against human HUVEC cells assessed as cell viability at 9 to 150 uM after 24 hrs by MTT assay relative to control; assay type: cell-based
[3] = system: HUVEC; assay: Cytotoxicity against human HUVEC cells assessed as cell viability at 9 to 150 uM after 48 hrs by MTT assay relative to control; assay type: cell-based
[4] = target: T1, Putative nitroreductase (Staphylococcus saprophyticus subsp. saprophyticus (strain ATCC 15305 / DSM20229 / NCIMB 8711 / NCTC 7292 / S-41), UniProt Q4A0P1); assay: Substrate activity at Staphylococcus saprophyticus nitroreductase expressed in Escherichia coli BL21 (DE3) assessed as retention time by HPLC analysis
[5] = system: Hep 3B2; assay: Cytotoxicity against human Hep3B cells assessed as cell viability after 24 hrs by MTT assay
[6] = target: T1, Putative nitroreductase; assay: Substrate activity at Staphylococcus saprophyticus nitroreductase NtrB assessed as enzyme specific activity using NADH as cofactor in Tris-Cl buffer at pH 7.5 by HPLC analysis
[7] = system: Hep 3B2; assay: Cytotoxicity against human Hep3B cells assessed as cell viability after 48 hrs by MTT assay
[8] = target: T1, Putative nitroreductase; assay: Substrate activity at Staphylococcus saprophyticus nitroreductase NtrB assessed as Kcat/Km using NADH as cofactor in Tris-Cl buffer at pH 7.5 by HPLC analysis relative to CB1954/NfsB
[9] = target: T1, Putative nitroreductase; assay: Substrate activity at Staphylococcus saprophyticus nitroreductase NtrB assessed as Kcat using NADH as cofactor in Tris-Cl buffer at pH 7.5 by HPLC analysis
[10] = target: T1, Putative nitroreductase; assay: Substrate activity at Staphylococcus saprophyticus nitroreductase NtrB assessed as Km using NADH as cofactor in Tris-Cl buffer at pH 7.5 by HPLC analysis
[11] = target: T1, Putative nitroreductase; assay: Substrate activity at Staphylococcus saprophyticus nitroreductase NtrB assessed as Kcat/Km using NADH as cofactor in Tris-Cl buffer at pH 7.5 by HPLC analysis
[12] = target: T1, Putative nitroreductase; assay: Prodrug activation assessed as Ssap-NtrB-mediated metabolite formation measured after 15 mins by LC-MS/MS analysis; settings: 0.25 h
[13] = system: PC-3; assay: Cytotoxicity against human PC3 cells assessed as cell viability after 48 hrs by MTT assay
[14] = system: HUVEC; assay: Cytotoxicity against human HUVEC cells assessed as cell viability after 48 hrs by MTT assay; assay type: cell-based
[15] = target: T1, Putative nitroreductase; assay: Binding affinity to Staphylococcus saprophyticus nitroreductase NtrB

## O=[N+]([O-])c1cccc(Nc2ccc([N+](=O)[O-])cc2[N+](=O)[O-])c1
[1]
  IC50: 5.07 µM
[2]
  Activity: > 80%
[3]
  Activity: > 80%
[4]
  Retention time: 17.7 min

## O=[N+]([O-])c1cccc(Nc2cc(Nc3cccc([N+](=O)[O-])c3)c([N+](=O)[O-])cc2[N+](=O)[O-])c1
[5]
  IC50: 5.4 µM
[6]
  Activity: 0.6 U/mg
[2]
  Activity: 51 to 80%
[3]
  Activity: 51 to 80%
[4]
  Retention time: 24 min
[7]
  IC50: 4.8 µM

## O=[N+]([O-])c1ccc(Nc2ccc(Nc3ccc([N+](=O)[O-])cc3[N+](=O)[O-])cc2)c([N+](=O)[O-])c1
[6]
  Activity: 0.12 U/mg
[8]
  fold change (FC): 0.01
[9]
  Kcat: 0.016 s⁻¹
[10]
  Km: 301 µM
[2]
  Activity: > 80%
[3]
  Activity: > 80%
[4]
  Retention time: 26 min
[11]
  Kcat/Km: 53 M⁻¹ s⁻¹

## O=[N+]([O-])c1ccc(N2CCN(c3ccc([N+](=O)[O-])cc3[N+](=O)[O-])CC2)c([N+](=O)[O-])c1
[1]
  IC50: 0.00399 µM
[2]
  Activity: > 80%
[3]
  Activity: > 80%
[4]
  Retention time: 17.6 min

## O=[N+]([O-])c1ccc(NCCCCNc2ccc([N+](=O)[O-])cc2[N+](=O)[O-])c([N+](=O)[O-])c1
[6]
  Activity: 2.1 U/mg
[1]
  IC50: 7.83 µM
[2]
  Activity: > 80%
[3]
  Activity: > 80%
[4]
  Retention time: 25 min

## Nc1ccc(Nc2ccc([N+](=O)[O-])cc2[N+](=O)[O-])c([N+](=O)[O-])c1
[6]
  Activity: 0.16 U/mg
[1]
  IC50: 7.13 µM
[2]
  Activity: > 80%
[3]
  Activity: > 80%
[4]
  Retention time: 21.8 min

## O=[N+]([O-])c1ccc(Nc2cccc(Nc3ccc([N+](=O)[O-])cc3[N+](=O)[O-])c2)c([N+](=O)[O-])c1
[2]
  Activity: > 80%
[3]
  Activity: > 80%
[4]
  Retention time: 18.8 min

## O=[N+]([O-])c1ccc(Nc2ccc([N+](=O)[O-])cc2[N+](=O)[O-])cc1
[12]
  Drug metabolism: Metabolite_Detected
[1]
  IC50: 4.98 µM
[2]
  Activity: > 80%
[3]
  Activity: > 80%
[4]
  Retention time: 17.7 min

## O=[N+]([O-])c1ccc(Nc2cc(Nc3ccc([N+](=O)[O-])cc3)c([N+](=O)[O-])cc2[N+](=O)[O-])cc1
[5]
  IC50: 12.2 µM
[6]
  Activity: 0.02 U/mg
[13]
  IC50: 74.1 µM
[14]
  IC50: 35.1 µM
[2]
  Activity: 51 to 80%
[4]
  Retention time: 13.5 min
[7]
  IC50: 12.3 µM

## O=[N+]([O-])c1ccc(Nc2ccc([N+](=O)[O-])cc2[N+](=O)[O-])c(Nc2ccc([N+](=O)[O-])cc2[N+](=O)[O-])c1
[6]
  Activity: 2.12 U/mg
[1]
  IC50: 0.0018 µM
[15]
  Ki: 0.896 µM
[2]
  Activity: > 80%
[3]
  Activity: > 80%
[4]
  Retention time: 21.3 min

## O=[N+]([O-])c1ccc(NC2CCC(Nc3ccc([N+](=O)[O-])cc3[N+](=O)[O-])CC2)c([N+](=O)[O-])c1 (centres undefined)
[2]
  Activity: > 80%
[3]
  Activity: > 80%
[4]
  Retention time: 27 min

## O=[N+]([O-])c1ccc(NCCNc2ccc([N+](=O)[O-])cc2[N+](=O)[O-])c([N+](=O)[O-])c1
[1]
  IC50: 0.00079 µM
[15]
  Ki: 0.283 µM
[2]
  Activity: > 80%
[3]
  Activity: > 80%
[4]
  Retention time: 23.2 min

## O=[N+]([O-])c1ccc(NC2CCCCC2Nc2ccc([N+](=O)[O-])cc2[N+](=O)[O-])c([N+](=O)[O-])c1 (centres undefined)
[1]
  IC50: 5.73 µM
[2]
  Activity: > 80%
[3]
  Activity: > 80%
[4]
  Retention time: 18.3 min

## O=[N+]([O-])c1ccc(NC2CCCC(Nc3ccc([N+](=O)[O-])cc3[N+](=O)[O-])C2)c([N+](=O)[O-])c1 (centres undefined)
[1]
  IC50: 9.58 µM
[2]
  Activity: > 80%
[3]
  Activity: > 80%
[4]
  Retention time: 19 min
